The text below walks through data of patent US10301320B2, “Compositions and methods of modulating 15-PGDH activity” (CASE WESTERN RESERVE UNIVERSITY, priority 2012, dated 2019).

Protein sequences, listed by entry. Tags and fused reporters are not part of them.
UniProt P15428, whole entry: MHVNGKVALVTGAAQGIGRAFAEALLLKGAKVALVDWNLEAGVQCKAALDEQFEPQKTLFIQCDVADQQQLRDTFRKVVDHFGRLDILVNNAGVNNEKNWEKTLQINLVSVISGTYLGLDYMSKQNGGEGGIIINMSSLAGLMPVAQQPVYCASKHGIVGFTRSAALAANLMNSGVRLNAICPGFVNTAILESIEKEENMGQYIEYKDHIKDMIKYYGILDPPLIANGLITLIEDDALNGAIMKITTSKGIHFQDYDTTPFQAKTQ

One test concerns A549 cells. Nature of the test: PGE2 levels in medium of IL1-beta stimulated A549 cells. Format: cell-based.
Test [1] concerns the target recombinant 15-PGDH protein (Homo sapiens (Human), UniProt P15428). Briefly: Melting temperature shift of recombinant 15-PGDH (SYPRO Orange). Format: binding.
Test [2] has as its target 15-PGDH activity in colon cancer cell lines (Homo sapiens (Human), UniProt P15428). Nature of the test: Total 15-PGDH activity in compound treated cell lines (tritium transfer). Format: cell-based. The conditions noted are these: […] for 48 hours (FIG. 10); FIG. 13 for SW124531.
In test [3] the test system is 15-PGDH mRNA in colon cancer cell lines. Briefly: 15-PGDH mRNA levels by real-time PCR. The conditions noted are these: treated colon cancer cell lines.

Regarding `COc1ccc(-c2cc(C(F)(F)F)n3nc(C(=O)N4CCCCC4)cc3n2)cc1`, the “Effect on PGE2 levels in medium, in words” value in the test with A549 cells is reported as “clear inhibition of 15-PGDH activity”. Further, the “Direct binding to recombinant 15-PGDH” value in test [1] was “evidence of direct binding to 15-PGDH”. Further, the “Total 15-PGDH activity in treated cells” value in test [2] is recorded as “increasing 15-PGDH activity in most cell lines”. Also, the “15-PGDH mRNA levels” value in test [3] is recorded as “do not in general alter 15-PGDH mRNA levels”.
